Data: US10053462B2, “P2X7 modulators” (Jansssen Pharmaceutica NV, priority 2013, dated 2018)

Protein sequences, listed by entry. Tags and fused reporters are not part of them. Lines headed by an entry give the natural chain unless they say otherwise; changes in a name come on top.
UniProt Q99572: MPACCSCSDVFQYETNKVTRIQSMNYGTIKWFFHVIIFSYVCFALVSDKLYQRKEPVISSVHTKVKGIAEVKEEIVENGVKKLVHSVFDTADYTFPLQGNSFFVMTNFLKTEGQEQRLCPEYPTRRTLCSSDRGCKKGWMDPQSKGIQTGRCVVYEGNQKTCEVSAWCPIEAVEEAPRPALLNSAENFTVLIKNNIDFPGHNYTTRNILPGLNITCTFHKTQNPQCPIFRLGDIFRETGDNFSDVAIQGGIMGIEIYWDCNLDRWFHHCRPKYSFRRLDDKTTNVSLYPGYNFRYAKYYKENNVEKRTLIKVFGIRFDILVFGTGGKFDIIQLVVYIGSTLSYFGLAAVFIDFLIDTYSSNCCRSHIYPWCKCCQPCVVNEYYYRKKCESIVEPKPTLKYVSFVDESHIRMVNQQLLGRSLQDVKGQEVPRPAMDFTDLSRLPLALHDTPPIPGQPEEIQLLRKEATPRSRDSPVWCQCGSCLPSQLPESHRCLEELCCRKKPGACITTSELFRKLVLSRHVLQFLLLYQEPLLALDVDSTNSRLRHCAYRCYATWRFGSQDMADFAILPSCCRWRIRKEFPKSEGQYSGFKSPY

Target: P2X7 (Homo sapiens (Human), UniProt Q99572)
Assay: P2X7 antagonism in human peripheral blood mononuclear cells (PBMCs), IL-1β release
Assay type: cell-based
Conditions: LPS 30 ng/ml + Bz-ATP 0.5 mM; for remaining activity at 10 µM: read-out: PBMC 10 μM (% control)
[1] = P2X7, Table 2 (additional runs), 10 μM compound

O=C(c1cccc(C(F)(F)F)c1Cl)N1[C@H]2CC[C@@H]1c1nnc(-c3cnccn3)n1C2 [Example 42, (6S,9R)-10-{[2-Chloro-3-(trifluoromethyl)phenyl]carbonyl}-3-pyrazin-2-yl-6,7,8,9-tetrahydro-5H-6,9-epimino[1,2,4]triazolo[4,3-a]azepine]
PBMC 10 μM (% control) (Table 1, 10 μM compound): −21.3 % control

O=C(c1cccc(C(F)(F)F)c1Cl)N1[C@H]2CCC[C@@H]1c1nnc(-c3ncc(F)cn3)n1C2 (stereo in doubt) [Example 17, (6S*,10R*)-11-{[2-Chloro-3-(trifluoromethyl)phenyl]carbonyl}-3-(5-fluoropyrimidin-2-yl)-5,6,7,8,9,10-hexahydro-6,10-epimino[1,2,4]triazolo[4,3-a]azocine]
PBMC 10 μM (% control) (Table 1, 10 μM compound): 84.2 % control

O=C(c1cccc(C(F)(F)F)c1Cl)N1[C@H]2CC[C@@H]1c1nnc(-c3ccc(Cl)s3)n1C2 [Example 55, (6S,9R)-3-(5-Chlorothiophen-2-yl)-10-{[2-chloro-3-(trifluoromethyl)phenyl]carbonyl}-6,7,8,9-tetrahydro-5H-6,9-epimino[1,2,4]triazolo[4,3-a]azepine]
PBMC 10 μM (% control) (Table 1, 10 μM compound): 15.3 % control

Cc1ccc(-c2nnc3n2C[C@@H]2CCC[C@H]3N2C(=O)c2ccnc(C(F)(F)F)c2Cl)s1 (stereo in doubt) [Example 38, (6S*,10R*)-11-{[3-Chloro-2-(trifluoromethyl)pyridin-4-yl]carbonyl}-3-(5-methylthiophen-2-yl)-5,6,7,8,9,10-hexahydro-6,10-epimino[1,2,4]triazolo[4,3-a]azocine]
remaining activity at 10 µM [1]: 101%
PBMC 10 μM (% control) (Table 1, 10 μM compound): 101.0 % control

O=C(c1cccc(C(F)(F)F)c1Cl)N1[C@H]2CC[C@@H]1c1nnc(-c3ccc[nH]3)n1C2 [Example 62, (6S,9R)-10-{[2-Chloro-3-(trifluoromethyl)phenyl]carbonyl}-3-(1H-pyrrol-2-yl)-6,7,8,9-tetrahydro-5H-6,9-epimino[1,2,4]triazolo[4,3-a]azepine]
PBMC 10 μM (% control) (Table 1, 10 μM compound): 14.1 % control

O=C(c1cccc(C(F)(F)F)c1Cl)N1[C@H]2CC[C@@H]1c1nnc(-c3cccs3)n1C2 [Example 61, (6S,9R)-10-{[2-Chloro-3-(trifluoromethyl)phenyl]carbonyl}-3-thiophen-2-yl-6,7,8,9-tetrahydro-5H-6,9-epimino[1,2,4]triazolo[4,3-a]azepine]
PBMC 10 μM (% control) (Table 1, 10 μM compound): 11.2 % control

O=C(c1cccc(C(F)(F)F)c1Cl)N1[C@@H]2CCC[C@H]1c1nnc(-c3ccc(F)cc3)n1C2 (stereo in doubt) [Example 6, (6R*,10S*)-11-{[2-Chloro-3-(trifluoromethyl)phenyl]carbonyl}-3-(4-fluorophenyl)-5,6,7,8,9,10-hexahydro-6,10-epimino[1,2,4]triazolo[4,3-a]azocine]
remaining activity at 10 µM (P2X7, Table 1, 10 μM compound): 5.8%
remaining activity at 10 µM [1]: 5.8%

O=C(c1ccc(F)c(C(F)(F)F)c1Cl)N1[C@H]2CC[C@@H]1c1nnc(-c3ccccn3)n1C2 [Example 43, (6S,9R)-10-{[2-Chloro-4-fluoro-3-(trifluoromethyl)phenyl]carbonyl}-3-pyridin-2-yl-6,7,8,9-tetrahydro-5H-6,9-epimino[1,2,4]triazolo[4,3-a]azepine]
PBMC 10 μM (% control) (Table 1, 10 μM compound): −18.6 % control

Cc1nc(-c2nnc3n2C[C@@H]2CC[C@H]3N2C(=O)c2cccc(C(F)(F)F)c2Cl)cs1 [Example 56, (6S,9R)-10-{[2-Chloro-3-(trifluoromethyl)phenyl]carbonyl}-3-(2-methyl-1,3-thiazol-4-yl)-6,7,8,9-tetrahydro-5H-6,9-epimino[1,2,4]triazolo[4,3-a]azepine]
PBMC 10 μM (% control) (Table 1, 10 μM compound): 25.9 % control

O=C(c1cccc(C(F)(F)F)c1Cl)N1[C@H]2CC[C@@H]1c1nnc(-c3ncc(F)cn3)n1C2 [Example 50, (6S,9R)-10-{[2-Chloro-3-(trifluoromethyl)phenyl]carbonyl}-3-(5-fluoropyrimidin-2-yl)-6,7,8,9-tetrahydro-5H-6,9-epimino[1,2,4]triazolo[4,3-a]azepine]
PBMC 10 μM (% control) (Table 1, 10 μM compound): 10.4 % control

O=C(c1cccc(C(F)(F)F)c1Cl)N1[C@H]2CCC[C@@H]1c1nnc(-c3ccccn3)n1C2 (relative stereo) [Example 32, (6S*,10R*)-11-{[2-Chloro-3-(trifluoromethyl)phenyl]carbonyl}-3-pyridin-2-yl-5,6,7,8,9,10-hexahydro-6,10-epimino[1,2,4]triazolo[4,3-a]azocine]
PBMC 10 μM (% control) (Table 1, 10 μM compound): 94.5 % control
PBMC 10 μM (% control) (Table 2 (additional runs), 10 μM compound): 94.5 % control

O=C(c1ccc(Cl)cc1Cl)N1[C@H]2CCC[C@@H]1c1nnc(-c3ncc(F)cn3)n1C2 (stereo in doubt) [Example 20, (6S*,10R*)-11-[(2,4-Dichlorophenyl)carbonyl]-3-(5-fluoropyrimidin-2-yl)-5,6,7,8,9,10-hexahydro-6,10-epimino[1,2,4]triazolo[4,3-a]azocine]
PBMC 10 μM (% control) (Table 1, 10 μM compound): 104.2 % control

O=C(c1cccc(C(F)(F)F)c1Cl)N1[C@@H]2CCC[C@H]1c1nnc(-c3cccnc3)n1C2 (stereo in doubt) [Example 15, (6R*,10S*)-11-{[2-Chloro-3-(trifluoromethyl)phenyl]carbonyl}-3-pyridin-3-yl-5,6,7,8,9,10-hexahydro-6,10-epimino[1,2,4]triazolo[4,3-a]azocine]
PBMC 10 μM (% control) (Table 1, 10 μM compound): 89.8 % control

Like-named read-outs stand apart in the source and are kept apart here.
